# Experimental data reported in ChEMBL document CHEMBL1134315 (J Med Chem, 2001).
# By UniProt entry, the sequences of proteins in these tests, tags left out.
# UniProt P20272, whole entry: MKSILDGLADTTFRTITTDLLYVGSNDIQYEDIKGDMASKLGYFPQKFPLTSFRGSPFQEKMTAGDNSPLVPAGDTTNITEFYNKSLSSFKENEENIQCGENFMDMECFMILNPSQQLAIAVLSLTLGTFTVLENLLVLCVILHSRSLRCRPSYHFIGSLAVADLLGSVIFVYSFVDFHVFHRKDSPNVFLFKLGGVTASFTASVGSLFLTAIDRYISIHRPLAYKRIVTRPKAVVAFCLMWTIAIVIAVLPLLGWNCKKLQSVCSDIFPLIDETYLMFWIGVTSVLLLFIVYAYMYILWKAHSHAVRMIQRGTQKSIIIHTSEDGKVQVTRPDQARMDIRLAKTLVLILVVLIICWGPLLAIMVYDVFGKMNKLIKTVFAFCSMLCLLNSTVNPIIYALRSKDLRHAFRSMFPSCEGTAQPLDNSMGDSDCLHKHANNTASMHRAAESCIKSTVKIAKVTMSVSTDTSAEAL
# Target: Cannabinoid receptor 1 (Rattus norvegicus, UniProt P20272)
# Assay: Binding affinity to CB1 cannabinoid receptor using [3H]WIN-55212-2 in rat cerebellum membranes
# Format: cell membranes, Membrane
smiles,measurement,value
CCCCC/C=C\C/C=C\C/C=C\C/C=C\CCCC(=O)NCCO [ANANDAMIDE],Ki,285 nM
